Kd and IC50 data for four molecules are collected here from patent US20130184251A1, “HETEROAROMATIC AND AROMATIC PIPERAZINYL AZETIDINYL AMIDES AS MONOACYLGLYCEROL LIPASE INHIBITORS” (Janssen Pharmaceutica, NV, priority 2009, published 2013).

By UniProt entry, the sequences of proteins in these tests, tags left out.
UniProt Q99685, whole entry L169S/L176S: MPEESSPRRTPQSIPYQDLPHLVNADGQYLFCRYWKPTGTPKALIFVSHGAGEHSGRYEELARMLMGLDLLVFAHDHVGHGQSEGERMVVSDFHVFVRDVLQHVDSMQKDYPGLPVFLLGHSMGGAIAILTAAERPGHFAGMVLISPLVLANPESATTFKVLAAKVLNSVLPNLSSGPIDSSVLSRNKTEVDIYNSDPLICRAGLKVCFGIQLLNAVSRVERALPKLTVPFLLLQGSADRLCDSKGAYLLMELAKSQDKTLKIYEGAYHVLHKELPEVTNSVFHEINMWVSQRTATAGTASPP

Assay [1] addresses T1, purified mutant MGL (mut-MGLL 11-313 L179S L186S) (Homo sapiens, UniProt Q99685, L169S/L176S). Description: MGL ThermoFluor assay. As to conditions: read-out: Ex. 4 Kd. On the technique in general: Differential scanning fluorimetry follows unfolding on heating by fluorescence.
Assay [2] concerns the target T1, purified mutant MGL (mut-MGLL 11-313 L179S L186S). Nature of the assay: MGL enzyme activity assay (mutant MGL). The note with it: read-out: Ex. 3 (mutant) IC50, substrate 4MU-B.

The Kd is the equilibrium constant for the complex coming apart. Usually IC50 stands for the point on the concentration scale where inhibition reaches its midpoint. As for `Cc1cccnc1N1CCN(C2CN(C(=O)c3ccc(-c4ccccc4)cc3)C2)CC1`, the Kd in assay [1] was 12.5 µM. Besides, the 50% inhibitory concentration (IC50) in assay [2] worked out at 15.2 µM.

As for `C[C@H](C(=O)N1CC(N2CCN(c3ccccn3)CC2)C1)c1ccc(-c2ccccc2)c(F)c1`, the Kd in assay [1] was above 76.7 µM. Moreover, the half-inhibitory concentration (IC50) in assay [2] is above 15.3 µM.

In the case of `N#Cc1ccc(N2CCN(C3CN(C(=O)c4ccc(-c5ccccc5)cc4)C3)CC2)nc1`, in assay [1], the Kd is above 19 µM. For the same molecule, the IC50 in assay [2] was above 15.3 µM.

Take `O=C(c1ccc(-c2ccccc2)cc1)N1CC(N2CCN(c3ccc(C(F)(F)F)cn3)CC2)C1`: in assay [1], the dissociation constant (Kd) is above 76.7 µM. For the same molecule, in assay [2], the IC50 was above 15.3 µM.
